Experiments:
CRF2R = target: T1, CRF2R (Homo sapiens, UniProt Q13324); test: CRF2R agonist activation (EC50 / Emax), called comparative CRF binding; type: cell-based; settings: for Emax: read-out: CRF2R Emax
T1 sequence (Q13324 1-411): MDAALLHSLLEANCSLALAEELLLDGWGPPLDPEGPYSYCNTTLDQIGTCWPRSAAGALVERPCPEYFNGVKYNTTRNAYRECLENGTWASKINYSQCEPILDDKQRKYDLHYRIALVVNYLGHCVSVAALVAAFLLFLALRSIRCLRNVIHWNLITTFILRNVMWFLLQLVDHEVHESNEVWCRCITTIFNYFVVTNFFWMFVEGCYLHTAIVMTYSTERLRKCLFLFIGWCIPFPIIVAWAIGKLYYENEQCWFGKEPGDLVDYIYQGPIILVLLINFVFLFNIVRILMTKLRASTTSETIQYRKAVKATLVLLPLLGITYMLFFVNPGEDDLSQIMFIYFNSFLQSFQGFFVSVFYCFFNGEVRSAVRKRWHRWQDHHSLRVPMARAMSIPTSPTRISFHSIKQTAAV
In short: (§1)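 Read-out is Gαs-driven cAMP induction, quantified directly in lysates or through CRE-reporter gene expression, after treating CRF1R- or CRF2R-expressing cells with peptide. Vehicle-treated cells serve as the comparison.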

CRF1R = target: T2, CRF1R (Homo sapiens, UniProt P34998); test: CRF1R agonist activation (EC50 / Emax), called comparative CRF binding; type: cell-based; settings: for Emax: read-out: CRF1R Emax; for EC50: CRF1R EC50
T2 sequence (P34998 24-415): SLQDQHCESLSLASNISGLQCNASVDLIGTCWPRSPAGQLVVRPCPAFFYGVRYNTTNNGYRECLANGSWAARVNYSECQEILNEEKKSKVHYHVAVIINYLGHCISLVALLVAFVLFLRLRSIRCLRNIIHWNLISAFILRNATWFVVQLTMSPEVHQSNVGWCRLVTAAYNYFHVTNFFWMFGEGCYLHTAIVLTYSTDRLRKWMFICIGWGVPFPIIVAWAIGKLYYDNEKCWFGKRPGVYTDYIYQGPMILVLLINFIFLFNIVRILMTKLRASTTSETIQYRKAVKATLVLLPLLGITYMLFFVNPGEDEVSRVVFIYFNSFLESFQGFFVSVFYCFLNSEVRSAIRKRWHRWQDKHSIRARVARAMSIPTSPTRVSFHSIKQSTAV
In short: as §1

Compound | Emax (CRF2R) | Emax (CRF1R) | EC50 (CRF2R) | EC50 (CRF1R)
CC[C@H](C)[C@H](NC(=O)[C@H](CCC(=O)O)NC(=O)[C@@H](NC(=O)[C@H](CCSC)NC(=O)[C@H](CCCCN)NC(=O)[C@H](CCCNC(=N)N)NC(=O)[C@H](CC(C)C)NC(=O)[C@H](CC(C)C)NC(=O)[C@H](CCC(N)=O)NC(=O)[C@H](Cc1ccccc1)NC(=O)[C@@H]1CCCN1C(=O)[C@H](CC(C)C)NC(=O)[C@H](CC(=O)O)NC(=O)[C@@H](NC(=O)[C@H](CO)NC(=O)[C@@H](NC(=O)[C@@H]1CCCN1C(=O)[C@@H]1CCCN1C(=O)CNC(=O)[C@@H]1CCC(=O)N1)[C@@H](C)CC)[C@@H](C)CC)[C@@H](C)CC)C(=O)N[C@@H](CCC(=O)O)C(=O)N[C@@H](CCCCN)C(=O)N[C@@H](CCC(N)=O)C(=O)N[C@@H](CCC(=O)O)C(=O)N[C@@H](CCCCN)C(=O)N[C@@H](CCC(=O)O)C(=O)N[C@@H](CCCCN)C(=O)N[C@@H](CCC(N)=O)C(=O)N[C@@H](CCC(N)=O)C(=O)N[C@@H](C)C(=O)N[C@H](C(=O)N[C@H](C(=O)N[C@@H](CC(N)=O)C(=O)N[C@@H](C)C(=O)N[C@@H](CCCNC(=N)N)C(=O)N[C@@H](CC(C)C)C(=O)N[C@@H](CC(C)C)C(=O)N[C@@H](C)C(=O)N[C@H](C(=O)N[C@H](C(N)=O)C(C)C)[C@@H](C)O)[C@@H](C)O)[C@@H](C)O [compound 21] | 96% | 88% |  | 
CC[C@H](C)[C@H](NC(=O)[C@H](CCCNC(=N)N)NC(=O)[C@H](C)NC(=O)[C@H](CC(N)=O)NC(=O)[C@@H](NC(=O)[C@@H](NC(=O)[C@H](C)NC(=O)[C@H](CCC(N)=O)NC(=O)[C@H](CCC(N)=O)NC(=O)[C@H](CCCCN)NC(=O)[C@H](CCC(=O)O)NC(=O)[C@H](CCCCN)NC(=O)[C@H](CCC(=O)O)NC(=O)[C@H](CCC(N)=O)NC(=O)[C@H](CCCCN)NC(=O)[C@H](CCC(=O)O)NC(=O)[C@@H](NC(=O)[C@H](CCC(=O)O)NC(=O)[C@@H](NC(=O)[C@H](CCSC)NC(=O)[C@H](CCCCN)NC(=O)[C@H](CCCNC(=N)N)NC(=O)[C@H](CC(C)C)NC(=O)[C@H](CC(C)C)NC(=O)[C@H](CCC(N)=O)NC(=O)[C@H](CC(C)C)NC(=O)[C@@H]1CCCN1C(=O)[C@H](CC(C)C)NC(=O)[C@H](CC(=O)O)NC(=O)[C@@H](NC(=O)[C@H](CO)NC(=O)[C@@H](NC(=O)[C@@H]1CCCN1C(=O)[C@@H]1CCCN1C(=O)CNC(=O)[C@@H]1CCC(=O)N1)[C@@H](C)CC)[C@@H](C)CC)[C@@H](C)CC)[C@@H](C)CC)[C@@H](C)O)[C@@H](C)O)C(=O)N[C@@H](CC(C)C)C(=O)N[C@@H](C)C(=O)N[C@@H](CCCNC(=N)N)C(=O)N[C@H](C(N)=O)C(C)C [compound 144] | 85.5% | 100% | 9.16 nM | 567 nM
CC[C@H](C)[C@H](NC(=O)[C@@H](NC(=O)[C@H](CC(=O)O)NC(=O)[C@H](CC(C)C)NC(=O)[C@H](CC(C)C)NC(=O)[C@H](CC(C)C)NC(=O)[C@H](CCCNC(=N)N)NC(=O)[C@H](CC(N)=O)NC(=O)[C@H](CC(N)=O)NC(=O)[C@H](C)NC(=O)[C@H](C)NC(=O)[C@H](CCC(N)=O)NC(=O)[C@H](CCC(N)=O)NC(=O)[C@H](CCCCN)NC(=O)[C@H](CCC(=O)O)NC(=O)[C@H](CCCCN)NC(=O)[C@H](CCC(=O)O)NC(=O)[C@H](CCC(N)=O)NC(=O)[C@H](CCCCN)NC(=O)[C@H](CCC(=O)O)NC(=O)[C@@H](NC(=O)[C@H](CCC(=O)O)NC(=O)[C@@H](NC(=O)[C@H](CCSC)NC(=O)[C@H](CCCCN)NC(=O)[C@H](CCCNC(=N)N)NC(=O)[C@H](CC(C)C)NC(=O)[C@H](CC(C)C)NC(=O)[C@H](C)NC(=O)[C@@H](NC(=O)[C@@H]1CCCN1C(=O)[C@H](CC(C)C)NC(=O)[C@H](CC(=O)O)NC(=O)[C@@H](NC(=O)[C@H](CO)NC(=O)[C@@H](NC(=O)[C@@H]1CCCN1C(=O)[C@@H]1CCCN1C(=O)CNC(=O)[C@@H]1CCC(=O)N1)[C@@H](C)CC)[C@@H](C)CC)C(C)C)[C@@H](C)CC)[C@@H](C)CC)[C@@H](C)O)C(N)=O [compound 305] | 95.2% | 59.5% | 35.4 nM | ≥ 1000 nM
CC[C@H](C)[C@H](NC(=O)[C@H](Cc1c[nH]cn1)NC(=O)[C@H](C)NC(=O)[C@H](CC(C)C)NC(=O)[C@H](CC(C)C)NC(=O)[C@H](CCC(N)=O)NC(=O)[C@H](C)NC(=O)[C@H](CC(N)=O)NC(=O)[C@H](CC(N)=O)NC(=O)[C@H](C)NC(=O)[C@H](C)NC(=O)[C@H](CCC(N)=O)NC(=O)[C@H](CCC(N)=O)NC(=O)[C@H](CCCCN)NC(=O)[C@H](CCC(=O)O)NC(=O)[C@H](CCCCN)NC(=O)[C@H](CCC(=O)O)NC(=O)[C@H](CCC(N)=O)NC(=O)[C@H](CCCCN)NC(=O)[C@H](CCC(=O)O)NC(=O)[C@@H](NC(=O)[C@H](CCC(=O)O)NC(=O)[C@@H](NC(=O)[C@@H](NC(=O)[C@H](CCCCN)NC(=O)[C@H](CCCNC(=N)N)NC(=O)[C@H](CC(C)C)NC(=O)[C@H](CC(C)C)NC(=O)[C@H](CCC(N)=O)NC(=O)[C@H](Cc1ccccc1)NC(=O)[C@@H]1CCCN1C(=O)[C@H](CC(C)C)NC(=O)[C@H](CC(=O)O)NC(=O)[C@@H](NC(=O)[C@H](CO)NC(=O)[C@@H](NC(=O)[C@@H]1CCCN1C(=O)[C@@H]1CCCN1C(=O)CNC(=O)[C@@H]1CCC(=O)N1)[C@@H](C)CC)[C@@H](C)CC)C(C)C)[C@@H](C)CC)[C@@H](C)CC)C(N)=O [compound 273] | 100% | 59.3% | 31.3 nM | ≥ 1000 nM
CC[C@H](C)[C@H](NC(=O)[C@@H](NC(=O)[C@H](CC(=O)O)NC(=O)[C@H](CC(C)C)NC(=O)[C@H](CC(C)C)NC(=O)[C@H](CC(C)C)NC(=O)[C@H](CCCNC(=N)N)NC(=O)[C@H](CC(N)=O)NC(=O)[C@H](CC(N)=O)NC(=O)[C@H](C)NC(=O)[C@H](C)NC(=O)[C@H](CCC(N)=O)NC(=O)[C@H](CCC(N)=O)NC(=O)[C@H](CCCCN)NC(=O)[C@H](CCC(=O)O)NC(=O)[C@H](CCCCN)NC(=O)[C@H](CCC(=O)O)NC(=O)[C@H](CCC(N)=O)NC(=O)[C@H](CCCCN)NC(=O)[C@H](CCC(=O)O)NC(=O)[C@@H](NC(=O)[C@H](CCC(=O)O)NC(=O)[C@@H](NC(=O)[C@H](CCSC)NC(=O)[C@H](CCCCN)NC(=O)[C@H](CCCNC(=N)N)NC(=O)[C@H](CC(C)C)NC(=O)[C@H](CC(C)C)NC(=O)[C@H](Cc1ccc(O)cc1)NC(=O)[C@@H](NC(=O)[C@@H]1CCCN1C(=O)[C@@H](NC(=O)[C@H](CC(=O)O)NC(=O)[C@@H](NC(=O)[C@H](CO)NC(=O)[C@@H](NC(=O)[C@@H]1CCCN1C(=O)[C@@H]1CCCN1C(=O)CNC(=O)[C@@H]1CCC(=O)N1)[C@@H](C)CC)[C@@H](C)CC)C(C)C)[C@@H](C)O)[C@@H](C)CC)[C@@H](C)CC)[C@@H](C)O)C(N)=O [compound 253] | 86% | 42% | 41.8 nM | ≥ 1000 nM
CC[C@H](C)[C@H](NC(=O)[C@@H](NC(=O)[C@H](C)NC(=O)[C@H](CC(C)C)NC(=O)[C@H](CC(C)C)NC(=O)[C@H](CC(C)C)NC(=O)[C@H](C)NC(=O)[C@H](CC(N)=O)NC(=O)[C@H](CC(N)=O)NC(=O)[C@H](C)NC(=O)[C@H](C)NC(=O)[C@H](CCC(N)=O)NC(=O)[C@H](CCC(N)=O)NC(=O)[C@H](CCCCN)NC(=O)[C@H](CCC(=O)O)NC(=O)[C@H](CCCCN)NC(=O)[C@H](CCC(=O)O)NC(=O)[C@H](CCC(N)=O)NC(=O)[C@H](CCCCN)NC(=O)[C@H](CCC(=O)O)NC(=O)[C@@H](NC(=O)[C@H](CCC(=O)O)NC(=O)[C@@H](NC(=O)[C@H](CCSC)NC(=O)[C@H](CCCCN)NC(=O)[C@H](CCCNC(=N)N)NC(=O)[C@H](CC(C)C)NC(=O)[C@H](CC(C)C)NC(=O)[C@H](Cc1ccc(O)cc1)NC(=O)[C@H](Cc1ccc(O)cc1)NC(=O)[C@@H]1CCCN1C(=O)[C@H](CC(C)C)NC(=O)[C@H](CC(=O)O)NC(=O)[C@@H](NC(=O)[C@H](CO)NC(=O)[C@@H](NC(=O)[C@@H]1CCCN1C(=O)[C@@H]1CCCN1C(=O)CNC(=O)[C@@H]1CCC(=O)N1)[C@@H](C)CC)[C@@H](C)CC)[C@@H](C)CC)[C@@H](C)CC)[C@@H](C)O)C(N)=O [compound 225] | 89% | 97% |  | 

From US6936585B2, “Corticotropin releasing factor 2 receptor agonists” (priority 2002, dated 2005)
